Assay results taken from patent publication US5861387A, “Controlled release systems and low dose androgens” (Endorecherche Inc., priority 1995, dated 1999).

Assays:
[1] = tested on: human breast cancer ZR-75-1 cells, androgen receptor; assay: Androgenic (androgen receptor) activity in ZR-75-1 cells: cell growth and GCDFP-15/GCDFP-24 secretion; assay type: cell-based; details: low concentrations
Procedure: Maintenance of stock cultures The ZR-75-1 human breast cancer cell line can be obtained from the American Type Culture Collection (Rockville, Md.). The cells are routinely cultured in phenol red-free RPMI 1640 medium supplemented with 10 nM E2, 15 mM Hepes, 2 mM L-glutamine, 1 mM sodium pyruvate, 100 IU penicillin per ml, 100 μg streptomycin sulfate per ml, and 10% (v/v) fetal bovine serum (FBS), in a water-saturated atmosphere of 95% air: 5% CO2 at 37° C.
Stock cultures in their logarithmic growth phase are harvested with 0.05% trypsin/0.02% EDTA (w/v) in Hanks' balanced salts solution and resuspended in E2- and phenol red-free RPMI 1640 medium containing 5% (v/v) dextran-coated charcoal (DCC)-treated FBS and 500 ng of bovine insulin per ml, but otherwise supplemented as described above for maintenance of stock cultures. […]
Fourty-eight hours after plating, fresh SD medium containing the appropriate concentrations of steroids are added. […] Cell number can be determined with a Coulter Counter.
Calculations and statistical analyses Apparent IC50 values are calculated using an iterative least squares regression (Rodbard, Endocrinology 94:1427-1437,1974), while apparent inhibition constants (Ki values) are calculated according to Cheng and Prusoff (Biochem. Pharmacol. 22: 3099-3108,1973). […]

endometrial carcinoma = details: cited from earlier work

## C[C@]1(O)CC[C@H]2[C@@H]3CCC4=CC(=O)CCC4=C3C=C[C@@]21C [R1881, methyltrienolone]
[1]
  androgenic activity: possess androgenic activity at low concentrations
Endometrial carcinoma
  growth of endometrial carcinoma in vitro: growth inhibitory effects
